# Measured values published in ChEMBL document CHEMBL4627412.
# Molecular target: Human immunodeficiency virus type 1 protease (Human immunodeficiency virus 1, UniProt Q72874)
# Test: Inhibition of HIV1 NL4-3 protease expressed in Escherichia coli TAP-106 cells using EDANS/DABCYL-labelled 10-amino acid containing protease cleavage site as substrate preincubated for 1 hr followed by substrate addition and measured for 60 mins by FRET assay
compound,measurement,value
Cc1cccc(C)c1OCC(=O)N[C@@H](Cc1ccccc1)[C@@H](O)C[C@H](Cc1ccccc1)NC(=O)[C@H](C(C)C)N1CCCNC1=O [LOPINAVIR],Ki,< 5 pM
